Reference: US11065294B2, “Composition including oriental medicine to treat neoplastic disease” (COMPREHENSIVE AND INTEGRATIVE MEDICINE INSTITUTE, priority 2013, dated 2021)

Conditions: mouse, in vivo

CNC(=O)c1cc(Oc2ccc(NC(=O)Nc3ccc(Cl)c(C(F)(F)F)c3)cc2)ccn1 [Sorafenib, sorafenib]
Body weight gain, Day 0~Day 28: 4.23 ± 1.51
